This assay concerns BVDV NADL. Briefly: XTT cytopathicity assay, infected cells. The note with it: in one experiment. In kind it is cell-based, bovine viral diarrhoea virus. On the procedure:
The cells were washed twice in warm phosphate buffered saline (PBS) and then infected with BVDV NADL (100 pfu/well) in 100 μl of DMEM supplemented with 5% horse serum, 2 mM L-glutamine, 50 U/ml penicillin and 50 μg/ml streptomycin. Some wells were mock infected to act as controls. A further 100 μl of DMEM supplemented as above, but containing different concentrations of test compound or no compound was then added to each well. Triplicate wells were used for each compound concentration. In parallel, uninfected cells were treated with compound to assess cytotoxicity. The plates were then incubated at 37° C. with 5% CO2. […] The absorbance was then determined at 450 nm.
(Tetrazolium dyes change colour on reduction, which living cells bring about.)

`CCCCCCCCCN1C[C@H](O)[C@@H](O)[C@H](O)[C@H]1CO` [N-Nonyl-DNJ, N-nonyl-deoxynojirimycin]: the selectivity index was found to be 2 fold.

These data come from patent publication US7601735B2, “Antiviral compounds” (priority 2001, dated 2009).
